Experiment: in vivo
Conditions: rat, oral, rats 5 week age, observed for 3 days

COC(=O)C1=C(C)NC(C)=C(C(=O)OC)C1C1=COCCO1 [Example 3, 3,5-dimethoxycarbonyl-4-2'-(5',6'-dihydro-p-dioxinyl)-2,6-dimethyl-1,4-dihydropyridine]
LD50 at 72 h: ≥ 2000 mg/kg
